Membrane permeability of cyclic peptides

Data: CycPeptMPDB; original report Townsend et al. 2020, doi:10.26434/chemrxiv.13335941.v1.

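The data file gives no further conditions (lipid, pH, time, direction or concentration), and values from different papers need not be comparable. The list need not hold all peptides of the study. Entries at the database's floor value (log10 P of -10) are not listed.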

PAMPA measures passive passage through an artificial lipid membrane. P is given in units of 10^-6 cm/s (from log10 values with two decimals); larger means faster passage.

compound | PAMPA (10^-6 cm/s)
CC(C)C[C@@H]1NC(=O)[C@H]2CCCN2C(=O)CN(Cc2ccccc2)C(=O)[C@@H](CC(C)C)N(C)C(=O)[C@@H](C)N(C)C(=O)[C@@H]2CCCN2C(=O)[C@H](Cc2ccccc2)NC1=O | 0.14
CCCN1CC(=O)N(C)[C@H](CC(C)C)C(=O)N(C)[C@@H](CC(C)C)C(=O)N2CCC[C@H]2C(=O)N(C)[C@H](CC(C)C)C(=O)N[C@@H](Cc2ccccc2)C(=O)N2CCC[C@@H]2C1=O | 11
CC(C)C[C@@H]1NC(=O)[C@@H]2CCCN2C(=O)CN(Cc2ccccc2)C(=O)[C@H](CC(C)C)N(C)C(=O)[C@@H](C)N(C)C(=O)[C@H]2CCCN2C(=O)[C@H](Cc2ccccc2)NC1=O | 0.91
CC(C)C[C@@H]1NC(=O)[C@H](C)NC(=O)[C@@H]2CCCN2C(=O)[C@H](Cc2ccccc2)NC(=O)CN(Cc2ccccc2)C(=O)[C@H]2CCCN2C(=O)[C@H](CC(C)C)N(C)C1=O | 0.27
CC(C)C[C@@H]1NC(=O)[C@@H](CC(C)C)N(C)C(=O)[C@H](C)NC(=O)[C@H](Cc2ccccc2)NC(=O)[C@H](CC(C)C)N(C)C(=O)[C@@H]2CCCN2C1=O | 10
CC(C)C[C@@H]1C(=O)N[C@H](CC(C)C)C(=O)N2CCC[C@H]2C(=O)N(Cc2ccccc2)CC(=O)N[C@@H](Cc2ccccc2)C(=O)N2CCC[C@H]2C(=O)N(C)[C@H](C)C(=O)N1C | 3.5
CC(C)C[C@H]1NC(=O)[C@H](CC(C)C)N(C)C(=O)[C@@H](C)NC(=O)[C@H]2CCCN2C(=O)[C@H](Cc2ccccc2)NC(=O)CN(Cc2ccccc2)C(=O)[C@H]2CCCN2C1=O | 0.54
CC(C)C[C@H]1C(=O)N(C)[C@@H](CC(C)C)C(=O)N2CCC[C@H]2C(=O)N(Cc2ccccc2)CC(=O)N[C@@H](Cc2ccccc2)C(=O)N2CCC[C@H]2C(=O)N[C@@H](C)C(=O)N1C | 6.9
CC(C)C[C@H]1NC(=O)[C@H](C)NC(=O)[C@@H]2CCCN2C(=O)[C@H](Cc2ccccc2)NC(=O)[C@H](CC(C)C)N(C)C(=O)[C@@H]2CCCN2C(=O)C[C@H](Cc2ccccc2)NC1=O | 0.68
CC(C)C[C@@H]1C(=O)N(C)[C@@H](CC(C)C)C(=O)N2CCC[C@H]2C(=O)N(C)[C@H](CC(C)C)C(=O)N[C@@H](Cc2ccccc2)C(=O)N2CCC[C@@H]2C(=O)N(C)[C@H](C)C(=O)N1C | 3.7
CCCN1CC(=O)N(C)[C@@H](CC(C)C)C(=O)N[C@@H](Cc2ccccc2)CC(=O)N2CCC[C@H]2C(=O)N(C)[C@@H](CC(C)C)C(=O)N[C@@H](Cc2ccccc2)C(=O)N2CCC[C@@H]2C1=O | 7.6
CC(C)C[C@@H]1NC(=O)[C@@H](C)NC(=O)[C@@H]2CCCN2C(=O)[C@H](Cc2ccccc2)NC(=O)CN(Cc2ccccc2)C(=O)[C@@H]2CCCN2C(=O)[C@H](CC(C)C)N(C)C1=O | 0.87
CC(C)C[C@@H]1NC(=O)[C@@H](C)N(C)C(=O)[C@@H]2CCCN2C(=O)[C@H](Cc2ccccc2)NC(=O)[C@@H](CC(C)C)NC(=O)[C@@H]2CCCN2C(=O)[C@H](CC(C)C)N(C)C1=O | 0.17
CC(C)C[C@H]1NC(=O)C[C@H](Cc2ccccc2)NC(=O)[C@H]2CCCN2C(=O)[C@H](Cc2ccccc2)NC(=O)[C@H](CC(C)C)N(C)C(=O)[C@@H]2CCCN2C(=O)[C@@H](CC(C)C)NC1=O | 3.3
CC(C)C[C@H]1NC(=O)[C@H](C)N(C)C(=O)[C@H]2CCCN2C(=O)[C@H](Cc2ccccc2)NC(=O)[C@H](CC(C)C)N(C)C(=O)[C@H]2CCCN2C(=O)CN(Cc2ccccc2)C1=O | 1.8
CC(C)C[C@@H]1NC(=O)C[C@H](Cc2ccccc2)NC(=O)[C@H](Cc2ccccc2)NC(=O)[C@@H](CC(C)C)NC(=O)[C@@H]2CCCN2C(=O)[C@H](CC(C)C)NC1=O | 0.48
CC(C)C[C@@H]1C(=O)N2CCC[C@H]2C(=O)N(Cc2ccccc2)CC(=O)N[C@@H](Cc2ccccc2)C(=O)N[C@H](C)C(=O)N(C)[C@@H](CC(C)C)C(=O)N1C | 4.3
CC(C)C[C@@H]1C(=O)N[C@@H](Cc2ccccc2)C(=O)N2CCC[C@@H]2C(=O)N[C@H](C)C(=O)N(C)[C@H](CC(C)C)C(=O)N(Cc2ccccc2)CC(=O)N2CCC[C@@H]2C(=O)N1C | 1.7
CC(C)C[C@H]1NC(=O)[C@H](C)NC(=O)[C@H](Cc2ccccc2)NC(=O)[C@H](CC(C)C)N(C)C(=O)[C@H]2CCCN2C(=O)C[C@H](Cc2ccccc2)NC1=O | 1.9
CC(C)C[C@@H]1NC(=O)[C@@H](CC(C)C)N(C)C(=O)C[C@H](Cc2ccccc2)NC(=O)[C@@H]2CCCN2C(=O)[C@H](Cc2ccccc2)NC(=O)[C@@H](CC(C)C)N(C)C(=O)[C@H]2CCCN2C1=O | 1.8
CC(C)C[C@@H]1C(=O)N[C@@H](Cc2ccccc2)C(=O)N2CCC[C@H]2C(=O)N(C)[C@@H](C)C(=O)N(C)[C@H](CC(C)C)C(=O)N(C)[C@@H](CC(C)C)C(=O)N2CCC[C@@H]2C(=O)N1C | 6.3
CC(C)C[C@@H]1NC(=O)[C@@H]2CCCN2C(=O)CN(Cc2ccccc2)C(=O)[C@H](CC(C)C)NC(=O)[C@@H](C)N(C)C(=O)[C@@H]2CCCN2C(=O)[C@H](Cc2ccccc2)NC1=O | 1.2

Excerpt, the opening 2 entries:

compound | PAMPA (10^-6 cm/s)
CC(C)C[C@@H]1NC(=O)[C@H]2CCCN2C(=O)CN(Cc2ccccc2)C(=O)[C@@H](CC(C)C)N(C)C(=O)[C@@H](C)N(C)C(=O)[C@@H]2CCCN2C(=O)[C@H](Cc2ccccc2)NC1=O | 0.14
CCCN1CC(=O)N(C)[C@H](CC(C)C)C(=O)N(C)[C@@H](CC(C)C)C(=O)N2CCC[C@H]2C(=O)N(C)[C@H](CC(C)C)C(=O)N[C@@H](Cc2ccccc2)C(=O)N2CCC[C@@H]2C1=O | 11